Measured values as given in US20060153912A1 (BASF Aktiengesellschaft, priority 2002, published 2006).

Key:
[1] = Color stability of 10% strength solutions in water/methanol (1:1), 7 h at 65° C., with and without stabilizer; format: physicochemical; settings: 10% strength solution in water/methanol (1:1)
Procedure: The experiments took place under the following conditions: 10% strength solutions in water/methanol (1:1)—7 h at 65° C.

[2] = Color stability of 50% strength water/methanol solutions stirred at reflux (65° C.) in air, Gardner/Hazen color number
[3] = after only a few days at 40° C. in the presence of humidity
[4] = 50% choline ascorbate solution, additive 1% by weight, reaction time 2 h
[5] = 50% solution in 1:1 water/methanol, without additive, reaction time 0 h
[6] = 50% solution in 1:1 water/methanol, without additive, reaction time 1 h
[7] = 50% solution in 1:1 water/methanol, without additive, reaction time 2 h
[8] = 50% solution in 1:1 water/methanol, without additive, reaction time 7 h

Choline ascorbate
Color number Gardner ([1]; no additive): 6.3
Color number Hazen ([1]; no additive): >1 000 ^
Color number Gardner ([1]; with 1% Cys): 0.1
Color number Hazen ([1]; with 1% Cys): 27
Color number Gardner [2, 4]: 3.5
Color number Hazen [2, 4]: 758
Color number Gardner [2, 5]: 0.1
Color number Hazen [2, 5]: 28
Color number Gardner [2, 6]: 1.9
Color number Hazen [2, 6]: 305
Color number Gardner [2, 7]: 3.5
Color number Hazen [2, 7]: 758
Color number Gardner [2, 8]: 6.3
Color number Hazen [2, 8]: >1000
Discoloration of the solid [3]: brownish color on the surface
